{"source": "patent US6569353B1", "about": "“Reactive decontamination formulation” (dated 2003)", "key": {"[1]": {"test": "CEES oxidation in gel (Examples 1, 2)", "conditions": "5 minutes; 100:1 molar excess of oxidant to surrogate"}, "[2]": {"test": "DEMP oxidation in gel at 100:1 (Example 3)", "conditions": "after 30 min; 100:1 molar excess of oxidant to surrogate"}, "[3]": {"test": "Dem-S oxidation in gel at 100:1 (Example 4)", "conditions": "5 minutes; 100:1 molar excess of oxidant to surrogate"}, "[4]": {"test": "CEES oxidation and by-products, liquid formulation (Example 12)", "conditions": "liquid state, oxidant to CEES 10:1"}}}
{"substance": "2KHSO5.KHSO4.K2SO4", "values": [{"measurement": "oxidation of CEES", "setting": "[1]", "result": "to completion"}, {"measurement": "DEMP eliminated", "setting": "[2]", "result": 11, "unit": "%"}, {"measurement": "oxidation of Dem-S", "setting": "[3]", "result": "to completion"}, {"measurement": "CEES destroyed", "setting": "[4]; 3 minutes", "result": 100, "unit": "%"}, {"measurement": "by-products detected in CEES oxidation", "setting": "[4]; 3 minutes", "result": "substantial amount of chloroethyl ethyl sulfone"}, {"measurement": "by-products of CEES oxidation", "setting": "[4]; 90 minutes", "result": "still present"}]}
